Results on nine molecules are retold here after patent US20060079453A1, “Hla binding peptides and their uses” (priority 2002, published 2006).

Like-named read-outs stand apart in the source and are kept apart here. Some results are limits rather than exact numbers.

Holding throughout (experiment): biochemical
Holding throughout (assay type): binding

One assay deals with HLA-DR DRB1*1101 (DR11) (Homo sapiens, UniProt P01903+P01911, A100R/A169T/A87E/I96F/K41T/L162R/M171V/P40S/Q125H/Q178H/Q39Y/Q99D/R42S/S66Y/T262R/V115G/W38E).
In another assay the target is HLA-DR DRB1*0701 (DR7) (Homo sapiens, UniProt P01903+P01911, A100R/A102G/A103Q/D57E/D86V/E43K/F76Y/K127E/L162R/M171V/P40G/Q125H/Q99D/R33Q/R42Y/R54Q/S133A/S66F/T210M/V115G/Y107V/Y59L/Y89S). The settings on record: DRB1 *0701.
Another assay deals with HLA-DR DRB1*0901 (DR9) (Homo sapiens, UniProt P01903+P01911, A100R/A103E/D57H/D86V/F55Y/F60I/F76Y/I96F/K127E/L162R/M171V/P40D/Q125H/Q99R/R33Q/R42F/S133A/S66N/T210M/V115G/W38K/Y107V/Y59G/Y89S). The following applies: DRB1 *0901.
A further assay addresses HLA-DR DRB1*0802 (DR8) (Homo sapiens, UniProt P01903+P01911, A100R/A103L/A169T/F76Y/H45Y/I96F/K41T/L162R/M171V/P40S/Q125H/Q178H/Q39Y/Q99D/R218S/R42G/S66Y/V115G/W38E).

On HLA-DR DRB1*1101 (DR11) (DRB1 *1101), `CC[C@H](C)[C@H](NC(=O)[C@H](CC(C)C)NC(=O)[C@H](CCCNC(=N)N)NC(=O)[C@@H]1CCCN1C(=O)[C@@H]1CCCN1C(=O)[C@H](C)N)C(=O)N[C@@H](CS)C(=O)N[C@@H](CC(=O)O)C(=O)N[C@@H](CO)C(=O)N[C@@H](CCCNC(=N)N)C(=O)N[C@H](C(=O)N[C@@H](CC(C)C)C(=O)N[C@@H](CCC(=O)O)C(=O)N[C@@H](CCCNC(=N)N)C(=O)N[C@@H](Cc1ccc(O)cc1)C(=O)O)C(C)C` had an IC50 of more than 1110 µM.

In the case of `CC[C@H](C)[C@H](N)C(=O)N[C@@H](CS)C(=O)N[C@@H](CC(=O)O)C(=O)N[C@@H](CO)C(=O)N[C@@H](CCCNC(=N)N)C(=O)N[C@H](C(=O)N[C@@H](CC(C)C)C(=O)N[C@@H](CCC(=O)O)C(=O)N[C@@H](CCCNC(=N)N)C(=O)N[C@@H](Cc1ccc(O)cc1)C(=O)N[C@@H](CC(C)C)C(=O)N[C@@H](CC(C)C)C(=O)N[C@@H](CCC(=O)O)C(=O)N[C@@H](C)C(=O)N[C@@H](CCCCN)C(=O)O)C(C)C`, the figures for the IC50 on HLA-DR DRB1*0701 (DR7) and against HLA-DR DRB1*0901 (DR9) were 57.6 µM and more than 78.9 µM, respectively.

`CC(C)C[C@H](NC(=O)CNC(=O)[C@H](CC(N)=O)NC(=O)[C@H](Cc1ccc(O)cc1)NC(=O)[C@@H](NC(=O)[C@H](CC(=O)O)NC(=O)[C@@H](N)CC(C)C)C(C)C)C(=O)N[C@@H](CC(C)C)C(=O)N1CCC[C@H]1C(=O)N1CCC[C@H]1C(=O)N[C@@H](Cc1ccc(O)cc1)C(=O)N[C@@H](C)C(=O)N[C@@H](CO)C(=O)N[C@@H](CS)C(=O)N[C@@H](Cc1c[nH]cn1)C(=O)O` gave an IC50 against HLA-DR DRB1*1101 (DR11) (DRB1 *1101) of 0.194 µM.

Take `CC[C@H](C)[C@H](NC(=O)[C@H](CCC(=O)O)NC(=O)[C@H](CC(C)C)NC(=O)[C@H](C)NC(=O)[C@H](CO)NC(=O)[C@H](CO)NC(=O)[C@H](CC(C)C)NC(=O)[C@H](CCC(=O)O)NC(=O)[C@H](Cc1c[nH]cn1)NC(=O)[C@H](CC(C)C)NC(=O)[C@H](CCCCN)NC(=O)[C@H](CCCNC(=N)N)NC(=O)[C@@H]1CCCN1)C(=O)N1CCC[C@H]1C(=O)N[C@@H](Cc1ccc(O)cc1)C(=O)O`: the IC50 against HLA-DR DRB1*1101 (DR11) (DRB1 *1101) was 5.99 µM.

As for `CC(C)C[C@H](NC(=O)[C@H](CCC(N)=O)NC(=O)[C@H](CC(C)C)NC(=O)[C@@H]1CCCN1C(=O)[C@H](CCC(=O)O)NC(=O)[C@H](Cc1c[nH]c2ccccc12)NC(=O)[C@@H]1CCCN1C(=O)[C@@H](N)CCC(N)=O)C(=O)N[C@@H](Cc1c[nH]cn1)C(=O)N[C@H](C(=O)N[C@@H](CC(=O)O)C(=O)N[C@@H](CCCCN)C(=O)N[C@@H](C)C(=O)N[C@H](C(=O)N[C@@H](CO)C(=O)O)C(C)C)C(C)C`, the figures for the IC50 against HLA-DR DRB1*0802 (DR8), on HLA-DR DRB1*0901 (DR9) and against HLA-DR DRB1*1101 (DR11) (DRB1 *1101) were more than 63.6 µM, 34.8 µM and 8.9 µM, respectively.

In the case of `CC(C)C[C@H](NC(=O)[C@H](CS)NC(=O)[C@H](Cc1c[nH]cn1)NC(=O)[C@H](C)NC(=O)[C@H](C)NC(=O)[C@@H](NC(=O)[C@H](CC(C)C)NC(=O)[C@@H](NC(=O)[C@H](Cc1c[nH]c2ccccc12)NC(=O)[C@@H](N)CCC(N)=O)C(C)C)[C@@H](C)O)C(=O)N[C@@H](CCCCN)C(=O)N[C@@H](CCCCN)C(=O)N[C@@H](CC(N)=O)C(=O)N[C@@H](CO)C(=O)N[C@@H](CCC(N)=O)C(=O)O`, the IC50 against HLA-DR DRB1*1101 (DR11) (DRB1 *1101) came to 14.2 µM.

On to `CC[C@H](C)[C@H](NC(=O)[C@@H](NC(=O)[C@@H](N)CCCNC(=N)N)[C@@H](C)O)C(=O)N[C@H](C(=O)N[C@@H](C)C(=O)N[C@@H](CC(=O)O)C(=O)N[C@H](C(=O)N[C@@H](Cc1ccccc1)C(=O)N[C@@H](CCCNC(=N)N)C(=O)N[C@@H](CCCCN)C(=O)N[C@@H](CC(C)C)C(=O)N[C@@H](Cc1ccccc1)C(=O)N[C@@H](CCCNC(=N)N)C(=O)N[C@H](C(=O)N[C@@H](Cc1ccc(O)cc1)C(=O)O)C(C)C)[C@@H](C)O)[C@@H](C)O`, for which, on HLA-DR DRB1*1101 (DR11) (DRB1 *1101), the IC50 turned out to be 0.166 µM.

Consider LVNSSQPWEPLQLHV, for which the IC50 at HLA-DR DRB1*1101 (DR11) (read-out: DRB1 *1101) was more than 8.16 µM.

As to VLERYLLEAKEAENI, the IC50 on HLA-DR DRB1*1101 (DR11) (read-out: DRB1 *1101) was 17.2 µM.
